The target of test [1] is 5-hydroxytryptamine receptor 2A (Rattus norvegicus, UniProt P14842).
Test [2] deals with T1, 5-hydroxytryptamine receptor 2C (Rattus norvegicus, UniProt P08909).
T1 sequence (P08909 whole entry): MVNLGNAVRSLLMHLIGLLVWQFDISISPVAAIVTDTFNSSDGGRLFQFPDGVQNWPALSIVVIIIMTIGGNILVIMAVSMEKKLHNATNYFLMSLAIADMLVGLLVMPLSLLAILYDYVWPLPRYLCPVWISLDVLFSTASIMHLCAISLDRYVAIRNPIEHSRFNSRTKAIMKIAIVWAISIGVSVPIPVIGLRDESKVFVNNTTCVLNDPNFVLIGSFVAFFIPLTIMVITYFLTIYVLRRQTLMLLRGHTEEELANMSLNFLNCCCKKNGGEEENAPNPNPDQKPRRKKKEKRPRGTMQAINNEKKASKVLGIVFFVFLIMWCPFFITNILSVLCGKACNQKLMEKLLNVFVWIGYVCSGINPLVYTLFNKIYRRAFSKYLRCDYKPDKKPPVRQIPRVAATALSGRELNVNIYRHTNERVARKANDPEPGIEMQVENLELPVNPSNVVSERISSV

Protein sequences, listed by entry. Tags and fused reporters are not part of them.
UniProt P14842, whole entry: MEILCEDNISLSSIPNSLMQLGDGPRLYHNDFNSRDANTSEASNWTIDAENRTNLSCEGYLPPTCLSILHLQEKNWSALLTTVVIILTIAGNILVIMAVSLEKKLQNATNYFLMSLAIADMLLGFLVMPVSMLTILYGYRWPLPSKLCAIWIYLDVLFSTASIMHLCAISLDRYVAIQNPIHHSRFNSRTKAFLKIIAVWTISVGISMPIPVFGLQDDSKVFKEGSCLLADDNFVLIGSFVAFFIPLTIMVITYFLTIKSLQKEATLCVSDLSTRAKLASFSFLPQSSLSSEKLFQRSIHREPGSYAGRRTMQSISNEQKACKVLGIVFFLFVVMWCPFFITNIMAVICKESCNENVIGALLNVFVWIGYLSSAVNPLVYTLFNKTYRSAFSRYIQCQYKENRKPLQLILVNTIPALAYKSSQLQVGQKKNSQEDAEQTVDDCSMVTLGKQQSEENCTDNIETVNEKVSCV
UniProt P30994, whole entry: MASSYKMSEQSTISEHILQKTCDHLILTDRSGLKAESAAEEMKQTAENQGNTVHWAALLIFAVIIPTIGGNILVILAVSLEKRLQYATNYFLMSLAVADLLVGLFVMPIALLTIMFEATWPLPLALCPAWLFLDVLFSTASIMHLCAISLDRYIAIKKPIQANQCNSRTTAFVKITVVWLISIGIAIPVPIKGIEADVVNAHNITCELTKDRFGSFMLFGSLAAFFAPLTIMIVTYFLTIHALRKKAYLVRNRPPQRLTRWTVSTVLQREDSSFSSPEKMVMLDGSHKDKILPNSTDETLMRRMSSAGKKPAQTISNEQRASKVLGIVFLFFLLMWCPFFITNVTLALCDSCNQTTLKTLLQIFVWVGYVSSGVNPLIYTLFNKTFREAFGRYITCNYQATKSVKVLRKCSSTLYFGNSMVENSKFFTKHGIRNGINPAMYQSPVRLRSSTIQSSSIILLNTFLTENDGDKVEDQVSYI

In test [3] the target is 5-hydroxytryptamine receptor 2B (Rattus norvegicus, UniProt P30994).

The text below walks through data of BindingDB's records for doi:10.1111/j.1476-5381.1995.tb14977.x (Syntex Discovery Research, 1995).

For `Cc1nc2sccn2c(=O)c1CCN1CCC(=C(c2ccc(F)cc2)c2ccc(F)cc2)CC1`, the inhibitory constant (Ki) in test [1] was 0.31 nM; in test [2], 1.58 nM; in test [3] it was 5.01 nM.
